Measurements: paper PMC9239047 (mBio, 2022)

System: USA300 MRSA (strain LAC)
Assay: Murine dermonecrosis model
Type: in vivo, BALB/c mice

Question: Which weight change (50 μg synthetic AIP-II, intradermal with MRSA, vs vehicle, not statistically significant) does the source give for `C[C@@H]1NC(=O)[C@@H](NC(=O)[C@@H]2CCCN2C(=O)[C@H](CO)NC(=O)[C@H](Cc2ccc(O)cc2)NC(=O)[C@@H](N)CO)CSC(=O)[C@H](Cc2ccccc2)NC(=O)[C@H](Cc2ccc(O)cc2)NC(=O)[C@H]([C@@H](C)O)NC1=O` [AIP-II] here?
Answer: The weight change was “tended to lose less weight”.

Question: What about the lesion severity (50-μg dose of synthetic AIP-II, after 5 days of infection) of the same compound?
Answer: The lesion severity was “closely resembled that of mice administered an agr mutant”.
